Active and inactive are the calls of the source. The rule behind the calls is not given here.
Experiment: modulators of 2-deoxyglucose-induced H9c2 death, dose response, myocardial damage modulator project, cell-based, ATPlite luminescence, rat, set 2 (AID 602210)
Conditions: H9c2 rat cardiomyoblasts, 2-deoxyglucose-induced death, 2 h

NC(=O)c1ccsc1NC(=O)c1ccc([N+](=O)[O-])o1
IC50: inactive: 10.7 µM
